From ChEMBL document CHEMBL5584220, “Design, synthesis, and biological evaluation of aralkyl piperazine and piperidine derivatives targeting SSRI/5-HT1A/5-HT7” (Bioorg Med Chem, 2024)

The chains behind the UniProt entries cited, without tags or fusion partners.
UniProt P08908, whole entry: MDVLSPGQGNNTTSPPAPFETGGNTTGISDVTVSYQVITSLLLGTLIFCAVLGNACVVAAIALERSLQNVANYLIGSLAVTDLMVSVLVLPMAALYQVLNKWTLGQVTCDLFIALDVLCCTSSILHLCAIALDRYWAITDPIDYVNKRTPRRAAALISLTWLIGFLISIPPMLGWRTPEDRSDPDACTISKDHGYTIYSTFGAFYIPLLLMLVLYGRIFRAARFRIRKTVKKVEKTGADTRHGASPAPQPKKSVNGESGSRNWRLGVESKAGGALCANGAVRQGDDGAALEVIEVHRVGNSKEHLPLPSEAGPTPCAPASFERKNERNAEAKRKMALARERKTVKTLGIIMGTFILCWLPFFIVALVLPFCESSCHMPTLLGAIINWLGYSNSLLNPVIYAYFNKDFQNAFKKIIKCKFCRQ
UniProt P34969, whole entry: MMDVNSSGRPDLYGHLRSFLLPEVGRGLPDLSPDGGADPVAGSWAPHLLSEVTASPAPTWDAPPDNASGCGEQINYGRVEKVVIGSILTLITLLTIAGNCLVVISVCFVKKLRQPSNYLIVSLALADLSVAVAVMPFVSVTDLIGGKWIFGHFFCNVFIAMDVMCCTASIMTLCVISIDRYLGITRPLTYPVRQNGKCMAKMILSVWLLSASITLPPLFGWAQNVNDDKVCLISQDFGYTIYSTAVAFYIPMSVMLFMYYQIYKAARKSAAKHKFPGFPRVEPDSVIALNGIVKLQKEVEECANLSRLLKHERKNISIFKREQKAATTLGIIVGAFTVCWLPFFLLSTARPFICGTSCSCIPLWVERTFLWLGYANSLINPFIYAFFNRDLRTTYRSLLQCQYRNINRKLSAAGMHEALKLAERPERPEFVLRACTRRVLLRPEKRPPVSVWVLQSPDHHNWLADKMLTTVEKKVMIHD
UniProt P31645, whole entry, looked up: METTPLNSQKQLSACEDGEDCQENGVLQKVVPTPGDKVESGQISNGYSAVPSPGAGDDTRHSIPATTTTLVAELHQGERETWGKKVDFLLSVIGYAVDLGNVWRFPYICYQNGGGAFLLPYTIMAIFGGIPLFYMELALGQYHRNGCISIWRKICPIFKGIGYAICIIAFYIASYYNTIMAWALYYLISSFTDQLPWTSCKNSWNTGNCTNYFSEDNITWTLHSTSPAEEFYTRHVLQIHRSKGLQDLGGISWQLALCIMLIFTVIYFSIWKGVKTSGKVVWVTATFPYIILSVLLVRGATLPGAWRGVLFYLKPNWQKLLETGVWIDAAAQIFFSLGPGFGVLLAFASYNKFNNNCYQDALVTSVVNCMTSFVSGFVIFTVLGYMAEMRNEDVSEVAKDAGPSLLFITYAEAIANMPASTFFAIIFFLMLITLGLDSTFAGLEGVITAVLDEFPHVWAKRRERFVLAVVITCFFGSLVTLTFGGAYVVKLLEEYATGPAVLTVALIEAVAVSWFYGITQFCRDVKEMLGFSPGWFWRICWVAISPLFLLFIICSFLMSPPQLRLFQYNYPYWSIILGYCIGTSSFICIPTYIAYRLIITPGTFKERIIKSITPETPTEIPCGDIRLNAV

What was measured:
[1] = target: 5-hydroxytryptamine receptor 1A (Homo sapiens, UniProt P08908); assay type: cell membranes; conditions: HEK293, Membrane, dose 1.0 µM, time 1.0 hrs
[2] = target: 5-hydroxytryptamine receptor 7 (Homo sapiens, UniProt P34969); assay type: cell membranes; conditions: HEK293, Membrane, dose 1.0 µM, time 1.0 hrs
[3] = target: Sodium-dependent serotonin transporter (Homo sapiens, UniProt P31645); experiment: Inhibition of human SERT expressed in HEK293 cells assessed as reduction in 5-HT reuptake at 1 uM incubated for 30 mins by fluorescent dye uptake assay relative to control; assay type: cell-based
[4] = test system: Mus musculus; experiment: Antidepressant activity in male ICR mouse assessed as reduction in immobility time at 80 mg/kg, po administered for 1 hrs by forced swim test relative to control; assay type: functional; parameters: scale not given: the % may be the effect or the level left
[5] = test system: Mus musculus; experiment: Antidepressant activity in male ICR mouse assessed as reduction in immobility time at 40 mg/kg, po administered for 1 hrs by forced swim test relative to control; assay type: functional; parameters: scale not given: the % may be the effect or the level left
[6] = test system: Mus musculus; experiment: Antidepressant activity in male ICR mouse assessed as reduction in immobility time at 20 mg/kg, po administered for 1 hrs by forced swim test relative to control; assay type: functional; parameters: scale not given: the % may be the effect or the level left

Compound	inhibition [1] [%]	inhibition [2] [%]	inhibition [3] [%]	Activity [4] [%]	Activity [5] [%]	Activity [6] [%]
CSc1ccccc1C1=CCN(CCCc2c[nH]c3ccc(F)cc23)CC1	98.9	88.3	103			
Fc1ccc(C23CCN(CCCc4c[nH]c5ccc(F)cc45)CC2O3)c(-c2ccccc2)c1 (configuration not stated)	97.3	72.2	95.3			
OC1(c2ccc(F)cc2-c2ccccc2)CCN(CCCc2c[nH]c3ccc(F)cc23)CC1	100	69.7	99.5			
Fc1ccc(C2=CCN(CCCc3c[nH]c4ccc(F)cc34)CC2)c(-c2ccccc2)c1	97.8	96	97.6			
CSc1ccccc1C1CCN(CCCc2c[nH]c3ccc(F)cc23)CC1	99.6	92.6	102			
CSc1ccccc1N1CCN(CCCc2c[nH]c3ccc(F)cc23)CC1.Cl				27	20	13
OC(CCN1CCC(c2ccc(F)cc2-c2ccccc2)CC1)c1c[nH]c2ccc(F)cc12 (configuration not stated)	92	95.9	70.8			
CSc1ccccc1N1CCN(CCC(=O)c2c[nH]c3ccc(F)cc23)CC1	99.3	96.3	83.8			

Continued, in another order:

inhibition [1] [%]	inhibition [2] [%]	inhibition [3] [%]	Compound	Activity [4] [%]	Activity [5] [%]	Activity [6] [%]
95.9	77	100	C[S+]([O-])c1ccccc1N1CCN(CCCc2c[nH]c3ccc(F)cc23)CC1 (configuration not stated)			
91.2	77.4	99.8	CS(=O)(=O)c1ccccc1N1CCN(CCCc2c[nH]c3ccc(F)cc23)CC1			
99.4	97.7	101	CSc1ccccc1N1CCN(CCCCCc2c[nH]c3ccc(F)cc23)CC1			
99.1	98.5	101	CSc1ccccc1N1CCN(CCCc2c[nH]c3ccc(C#N)cc23)CC1			
100	97.5	102	CCSc1ccccc1N1CCN(CCCc2c[nH]c3ccc(F)cc23)CC1			
100	97.3	101	CSc1ccccc1N1CCN(CCCCc2c[nH]c3ccc(F)cc23)CC1			
